Most compounds without a hit are left out; they make up all but 2.8% or so of the library.
PGC1a acetyl inh = inhibitors of PGC1a acetylation signal, primary screen, cell-based, U2OS, AlphaScreen, inhibitor mode; inhibition, % at 15.6 µM; AlphaScreen anti-acetyl-lysine; with virally co-expressed GCN5 acetyltransferase; hit rate 0.17% among 350,000;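 active = every replicate shows inhibition of at least 40%; inconclusive = mean inhibition at least 40% but some replicate below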
C2C12 statin = suppressors of statin myotoxicity in C2C12 myotubes, primary screen, cell-based, single point, plate reader; C2C12 myotubes + simvastatin, ATP luminescence, 48 h; scaled: DMSO 0, geranylgeraniol control 100; rescue of ATP level, % at 7.49 µM; hit rate 0.78% among 330,000; AID 602340, 2012;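 active = mean ATP rescue above about 67%, or every replicate alone reaching that limit, limit read from the data, passing the limit was not always enough; inconclusive = no clear call, values can overlap the other calls; inactive = mean under the limit and some replicate under it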;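 also: myotubes were challenged with 10 µM simvastatin during compound exposure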
E-selectin induc = E-selectin induction in HUVECs, primary screen, imaging, HUVEC, immunofluorescence imaging, single point; P16581; normalized: neutral wells 0, TNF-alpha wells 100; activation, % at 7.58 µM; hit rate 0.37% among 260,000;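 active = mean E-selectin-positive cell signal at least 10% of the positive control, reached in at least 60% of replicates, without over 20% cell loss; inconclusive = no rule given, readout overlaps actives, possibly toxicity-flagged; inactive = the rest, including those meeting only one limit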
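material = human umbilical vein endothelial cells (HUVEC), E-selectin induction | quantity = 3,000 cells/well | medium = EGM-2 growth medium on 0.1% gelatin-coated wells | technique = immunofluorescence imaging | read-out basis = % PE-positive cells | control set = TNF-alpha positive control, DMSO neutral control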
PglD inh = C. jejuni PglD acetyltransferase inhibitors, primary screen, biochemical, DTNB colorimetric, single point; hit rate 0.098% among 360,000; inhibition, % at 12.5 µM; AID 602405, 2012; UDP-N-acetylbacillosamine N-acetyltransferase PglD (Campylobacter jejuni); purified PglD enzyme, DTNB colorimetric CoA detection; in the data active = inhibition above about 16%, passing the limit was not always enough; inconclusive = no clear call, values can overlap the other calls
UUG fidelity = modulators of start codon recognition fidelity in yeast. activity score, % at 18.7 µM. S. cerevisiae UUG-firefly luciferase reporter, luminescence/redox ratio. 350,000 compounds, 0.13% hits;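 active means replicate mean at a twofold rise or more, about +100% in these data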;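 further: firefly luciferase made from a UUG start codon reports start codon fidelity; reporter light over untreated wells divided by growth signal over untreated wells; some hits fall short of that in this replicate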
esBAF inh = Bmi1 luciferase reporter increase in mESCs, primary screen, esBAF inhibitor project, mouse ES cells, Bmi1 luciferase knock-in, single point; 24 h; 100% = twice the neutral-well signal; reporter increase, % at 12.5 µM; hit rate 2% among 350,000; in the data active = activation above about 40%; inconclusive = no clear call, values can overlap the other calls;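 also: a rise in the Bmi1 reporter signal indicates esBAF inhibition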
C2C12 COX5a inh = inhibitors of PGC-1a-driven COX5a expression, dose response, cell-based, C2C12 myotubes, RT-qPCR, cherry-picked samples | shares compounds with PGC1a acetyl inh | C2C12 myotubes PGC-1a adenovirus | maximal activity, % | 45 tested, under 10 active;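 active = fitted dose curve reaching 40% activity at or below the highest valid dose tested; inconclusive = flat fit between 30% and 70%, or an unusable fit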
AID743468 = change in PGC-1a target gene PDK4 expression, dose response, C2C12 myotubes, RT-qPCR, cherry-pick | shares compounds with PGC1a acetyl inh | PGC-1a adenovirus, PDK4 mRNA qPCR | PDK4 expression increase, % at 19.5 µM | 45 tested, under 10 active | AID 743468, 2014;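 active = fitted curve reaching a 40% PDK4 expression rise at or below the top valid tested dose; inconclusive = no clear call, values can overlap the other calls; inactive = the rest, including shifts the wrong way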
A number is an active result; – = inactive; ? = inconclusive; · = no result given.

SMILES	PGC1a acetyl inh	C2C12 statin	E-selectin induc	PglD inh	UUG fidelity	esBAF inh	C2C12 COX5a inh	AID743468
C=CS(=O)(=O)N(Cc1ccccc1Br)[C@H](CO)Cc1ccccc1	?	–	–	–	–	–	–	–
CO[C@H]1CN(C)C(=O)c2cc(NC(C)=O)ccc2OC[C@H](C)N(Cc2ccccn2)C[C@@H]1C	–	–	–	–	–	–	·	·
C[C@H](CO)N1C[C@H](C)[C@@H](CN(C)Cc2cccnc2)Oc2cc(C#CC3CCCCC3)ccc2S1(=O)=O	?	–	–	–	–	–	–	–
Cc1ccc(S(=O)(=O)N(C)C[C@H]2Oc3cc(C#Cc4ccncc4)ccc3S(=O)(=O)N([C@H](C)CO)C[C@H]2C)cc1	44	–	–	–	·	–	–	–
O=C(c1cccnc1)N1C[C@@H]2[C@H](c3ccccc31)[C@H](CO)N2CC1CCCCC1	–	–	–	–	–	–	·	·
COc1ccc(S(=O)(=O)N(C)C[C@@H]2Oc3ccc(NS(=O)(=O)c4ccc(F)cc4)cc3C(=O)N([C@H](C)CO)C[C@@H]2C)cc1	–	–	–	–	–	–	·	·
C[C@@H]1CN([C@H](C)CO)C(=O)Cc2cc(NC(=O)CCN3CCOCC3)ccc2O[C@H]1CN(C)S(=O)(=O)c1cn(C)cn1	–	–	–	–	–	–	·	·
Cc1cc(C)cc(OC(=O)CS(=O)c2ccc(C(F)(F)F)cc2[N+](=O)[O-])c1 (stereo not drawn)	–	–	·	–	–	–	–	–
O=C(Nc1cccc(F)c1)N1CC(=O)N2[C@H](C1)[C@H](c1ccc(C#Cc3cccnc3)cc1)[C@@H]2CO	–	·	–	·	·	·	·	·
O=C(Nc1cccc(F)c1)N1CC(=O)N2[C@@H](CO)[C@@H](c3ccc(C#Cc4cccnc4)cc3)[C@@H]2C1	?	·	–	·	·	·	–	49
CCOC(=O)c1c2c(n(Cc3ccccc3)c1C)C(=O)C(=O)c1ccccc1-2	·	·	–	·	·	·	·	·
CCOC(=O)c1c2c(n(C)c1C)C(=O)C(=O)c1ccc(Br)cc1-2	–	–	·	–	–	–	–	–

Screens as filed in PubChem.
